The values that follow are results of earlier work, collected in patent US20050266042A1, “Methods and apparatus for treatment of aneurysmal tissue” (Medtronic Vascular, Inc., priority 2004, published 2005).

The conditions of the data set: in vivo.

For `NCCCC[C@H](N[C@@H](CCc1ccccc1)C(=O)O)C(=O)N1CCC[C@H]1C(=O)O` [lisinopril], the “route of elimination / clearance” value is on record as “cleared as the intact compound in the kidney”.
